Experimental data from ChEMBL document CHEMBL4184231, “Selective inhibition of monoamine oxidase A by hispidol” (Bioorg Med Chem Lett, 2018).

By UniProt entry, the sequences of proteins in these tests, tags left out.
UniProt P27338, whole entry: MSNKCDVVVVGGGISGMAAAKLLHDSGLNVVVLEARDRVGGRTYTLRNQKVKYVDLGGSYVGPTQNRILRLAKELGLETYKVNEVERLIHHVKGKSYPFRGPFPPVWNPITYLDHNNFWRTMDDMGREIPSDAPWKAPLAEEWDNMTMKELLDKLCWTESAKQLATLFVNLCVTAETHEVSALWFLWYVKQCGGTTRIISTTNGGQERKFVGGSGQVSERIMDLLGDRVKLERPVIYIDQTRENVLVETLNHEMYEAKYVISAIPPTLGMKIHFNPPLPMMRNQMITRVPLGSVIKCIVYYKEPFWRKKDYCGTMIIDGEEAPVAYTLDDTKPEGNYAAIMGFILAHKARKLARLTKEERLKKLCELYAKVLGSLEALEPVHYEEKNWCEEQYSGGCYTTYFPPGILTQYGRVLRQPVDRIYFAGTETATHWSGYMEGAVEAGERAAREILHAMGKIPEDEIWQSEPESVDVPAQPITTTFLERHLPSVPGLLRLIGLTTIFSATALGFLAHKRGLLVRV

Target: Amine oxidase [flavin-containing] B (Homo sapiens, UniProt P27338)
Test: Inhibition of human recombinant MAOB assessed as residual enzyme activity at 2 time IC50 pre-incubated for 30 mins followed by 0.06 mM benzylamine substrate addition

Compound `C#CCN(C)Cc1ccccc1` [PARGYLINE] has an Activity of 17.4%.
